Experimental data published in the NIST ThermoML archive (doi:10.1016/j.jct.2011.06.006).

Test: xn = mol fraction of the nth substance listed
Details: Liquid, Vibrating tube method

CCCCOCCCC [dibutyl ether] + CCCCO
mass density [kg/m3]
Details	293.15 K	313.15 K	333.15 K	353.15 K	373.15 K	393.15 K
100 kPa, x1 = 0.1553	800	783.9	767.7	749.5	730.5	–
100 kPa, x1 = 0.3249	791.5	775	758.2	739.7	720.4	–
100 kPa, x1 = 0.4979	784.1	767.1	749.9	731.2	711.9	–
100 kPa, x1 = 0.6748	777.8	760.6	743.2	724.5	704.9	–
100 kPa, x1 = 0.8501	772.4	755	737.4	718.7	699.6	–
10000 kPa, x1 = 0.1553	807.6	792	776.6	758.7	742.1	724.2
10000 kPa, x1 = 0.3249	799	783.2	767.6	750.5	732.7	714.5
10000 kPa, x1 = 0.4979	791.9	775.8	759.8	742.4	725	706.9
10000 kPa, x1 = 0.6748	785.8	769.5	753.4	736.1	718.4	700.7
10000 kPa, x1 = 0.8501	780.6	764.2	747.8	730.5	713.4	696.2
20000 kPa, x1 = 0.1553	814.4	799.3	784.7	768.9	752.6	735.9
20000 kPa, x1 = 0.3249	805.8	790.8	776.1	760.1	743.7	726.8
20000 kPa, x1 = 0.4979	799.1	783.7	768.5	752.4	736.3	719.7
20000 kPa, x1 = 0.6748	793.1	777.5	762.5	746.3	730.1	713.8
20000 kPa, x1 = 0.8501	788	772.4	757.1	741	725.3	709.5
30000 kPa, x1 = 0.1553	820.6	806.3	792.2	777.1	762	745.8
30000 kPa, x1 = 0.3249	812.6	797.9	783.8	768.7	753.4	737.1
30000 kPa, x1 = 0.4979	805.5	791	776.5	761.2	746.1	730.3
30000 kPa, x1 = 0.6748	799.7	785	770.6	755.3	740.3	724.7
30000 kPa, x1 = 0.8501	794.8	780	765.4	750.2	735.7	720.6
40000 kPa, x1 = 0.1553	826.4	812.5	799	784.6	770	755.2
40000 kPa, x1 = 0.3249	818.2	804.3	790.9	776.5	761.8	746.9
40000 kPa, x1 = 0.4979	811.7	797.6	783.8	769.2	754.6	740.3
40000 kPa, x1 = 0.6748	806	791.8	778	763.5	749.1	734.9
40000 kPa, x1 = 0.8501	801.1	786.9	773	758.5	744.6	730.9
50000 kPa, x1 = 0.1553	831.9	818.5	805.4	791.6	777.5	763
50000 kPa, x1 = 0.3249	823.8	810.4	797.5	783.6	769.5	754.9
50000 kPa, x1 = 0.4979	817.4	803.9	790.5	776.6	762.6	748.6
50000 kPa, x1 = 0.6748	811.7	798.2	784.9	771	757.2	743.3
50000 kPa, x1 = 0.8501	807	793.4	780	766.1	752.8	739.3
60000 kPa, x1 = 0.1553	837	824	811.3	797.9	784.5	770.6
60000 kPa, x1 = 0.3249	829	816.1	803.6	790.2	776.7	762.6
60000 kPa, x1 = 0.4979	822.6	809.7	796.7	783.2	769.9	756.6
60000 kPa, x1 = 0.6748	817.2	804.1	791.3	777.8	764.7	751.3
60000 kPa, x1 = 0.8501	812.4	799.4	786.4	773	760.4	747.5
70000 kPa, x1 = 0.1553	841.9	829.4	816.8	803.9	790.9	777.6
70000 kPa, x1 = 0.3249	833.9	821.6	809.2	796.3	783.4	769.8
70000 kPa, x1 = 0.4979	827.8	815.4	802.5	789.5	776.7	763.8
70000 kPa, x1 = 0.6748	822.3	809.8	797.2	784.2	771.6	758.7
70000 kPa, x1 = 0.8501	817.7	805.2	792.4	779.5	767.4	754.9
80000 kPa, x1 = 0.1553	846.7	834.3	822.2	809.7	796.9	784.2
80000 kPa, x1 = 0.3249	838.8	826.6	814.7	802	789.5	776.6
80000 kPa, x1 = 0.4979	832.6	820.5	808.2	795.6	783	770.7
80000 kPa, x1 = 0.6748	827.3	815	802.9	790.4	777.9	765.7
80000 kPa, x1 = 0.8501	822.7	810.5	798.2	785.7	773.8	762
90000 kPa, x1 = 0.1553	851	839	827.5	815	802.7	790.1
90000 kPa, x1 = 0.3249	843.2	831.5	820.1	807.5	795.4	782.7
90000 kPa, x1 = 0.4979	837.1	825.4	813.7	801.2	789	776.9
90000 kPa, x1 = 0.6748	831.9	820	808.5	796.1	784.1	772
90000 kPa, x1 = 0.8501	827.4	815.6	803.8	791.5	780	768.3
100000 kPa, x1 = 0.1553	855.5	843.4	832.2	820	808.1	795.8
100000 kPa, x1 = 0.3249	847.8	836	824.9	812.5	801	788.6
100000 kPa, x1 = 0.4979	841.8	830	818.6	806.4	794.6	782.5
100000 kPa, x1 = 0.6748	836.6	824.7	813.5	801.3	789.7	778
100000 kPa, x1 = 0.8501	832.1	820.3	808.9	796.8	785.7	774.3
110000 kPa, x1 = 0.1553	859.4	847.8	836.7	824.8	813.3	801.4
110000 kPa, x1 = 0.3249	851.8	840.5	829.5	817.5	806.4	794.3
110000 kPa, x1 = 0.4979	845.9	834.5	823.1	811.4	800	788.3
110000 kPa, x1 = 0.6748	840.7	829.3	818.1	806.4	795.3	783.8
110000 kPa, x1 = 0.8501	836.3	824.9	813.7	801.9	791.3	780.2
120000 kPa, x1 = 0.1553	863.4	852	840.6	829.5	817.9	806.5
120000 kPa, x1 = 0.3249	855.8	844.8	833.4	822.3	811	799.4
120000 kPa, x1 = 0.4979	850	839	827.2	816.2	804.8	793.5
120000 kPa, x1 = 0.6748	844.8	833.7	822.2	811.3	800.1	789.1
120000 kPa, x1 = 0.8501	840.5	829.4	817.8	806.9	796.1	785.4
130000 kPa, x1 = 0.1553	867.2	856	845.1	833.9	822.6	811.4
130000 kPa, x1 = 0.3249	859.7	848.8	838	826.8	815.8	804.4
130000 kPa, x1 = 0.4979	854	843	831.8	819.3	809.7	798.6
130000 kPa, x1 = 0.6748	848.8	837.9	826.8	815.9	805.1	794.2
130000 kPa, x1 = 0.8501	844.5	833.6	822.5	811.5	801.1	790.6
140000 kPa, x1 = 0.1553	870.9	859.9	849	838.2	827	816.2
140000 kPa, x1 = 0.3249	863.4	852.9	842	831.1	820.2	809.2
140000 kPa, x1 = 0.4979	857.7	847.1	835.9	825.2	814.3	803.5
140000 kPa, x1 = 0.6748	852.6	842	831	820.4	809.6	799.1
140000 kPa, x1 = 0.8501	848.3	837.8	826.7	816	805.7	795.6
